# Reference: PubChem BioAssay AID463212 (Sanford-Burnham Center for Chemical Genomics, 2010)
# This is a selection; strong and weak results do not stand in their true shares. Calls of active or inactive are those of the source.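 How the source made its calls: active means growth inhibition of the mutant yeast at or above 50%; inactive means the rest.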
# Test: growth inhibitors of tim23-1 mutant yeast, primary screen, luminescence, uHTS (AID 463212);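 further: temperature-sensitive mutant grown at 25 °C; plate controls were DMSO-treated mutant yeast for no effect and medium wells lacking yeast for full effect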
# Conditions: S. cerevisiae tim23-1 growth, BacTiter-Glo luminescence, 24 h; at 20 µM; hits give high values
row,Compound,inhibition
1,CCC(=O)N(c1ccccc1)C1(COC)CCN(CCc2cccs2)CC1,inactive: 11.9%
2,CCC(=O)N(c1ccccc1)C1(COC)CCN(CCn2nnn(CC)c2=O)CC1,inactive: -4.04%
